The text below walks through data of PubChem BioAssay AID875 (National Center for Advancing Translational Sciences (NCATS), 2007).

Sequences of proteins named here, by UniProt entry; tags and fusion partners are left off.
UniProt P38398, whole entry, looked up: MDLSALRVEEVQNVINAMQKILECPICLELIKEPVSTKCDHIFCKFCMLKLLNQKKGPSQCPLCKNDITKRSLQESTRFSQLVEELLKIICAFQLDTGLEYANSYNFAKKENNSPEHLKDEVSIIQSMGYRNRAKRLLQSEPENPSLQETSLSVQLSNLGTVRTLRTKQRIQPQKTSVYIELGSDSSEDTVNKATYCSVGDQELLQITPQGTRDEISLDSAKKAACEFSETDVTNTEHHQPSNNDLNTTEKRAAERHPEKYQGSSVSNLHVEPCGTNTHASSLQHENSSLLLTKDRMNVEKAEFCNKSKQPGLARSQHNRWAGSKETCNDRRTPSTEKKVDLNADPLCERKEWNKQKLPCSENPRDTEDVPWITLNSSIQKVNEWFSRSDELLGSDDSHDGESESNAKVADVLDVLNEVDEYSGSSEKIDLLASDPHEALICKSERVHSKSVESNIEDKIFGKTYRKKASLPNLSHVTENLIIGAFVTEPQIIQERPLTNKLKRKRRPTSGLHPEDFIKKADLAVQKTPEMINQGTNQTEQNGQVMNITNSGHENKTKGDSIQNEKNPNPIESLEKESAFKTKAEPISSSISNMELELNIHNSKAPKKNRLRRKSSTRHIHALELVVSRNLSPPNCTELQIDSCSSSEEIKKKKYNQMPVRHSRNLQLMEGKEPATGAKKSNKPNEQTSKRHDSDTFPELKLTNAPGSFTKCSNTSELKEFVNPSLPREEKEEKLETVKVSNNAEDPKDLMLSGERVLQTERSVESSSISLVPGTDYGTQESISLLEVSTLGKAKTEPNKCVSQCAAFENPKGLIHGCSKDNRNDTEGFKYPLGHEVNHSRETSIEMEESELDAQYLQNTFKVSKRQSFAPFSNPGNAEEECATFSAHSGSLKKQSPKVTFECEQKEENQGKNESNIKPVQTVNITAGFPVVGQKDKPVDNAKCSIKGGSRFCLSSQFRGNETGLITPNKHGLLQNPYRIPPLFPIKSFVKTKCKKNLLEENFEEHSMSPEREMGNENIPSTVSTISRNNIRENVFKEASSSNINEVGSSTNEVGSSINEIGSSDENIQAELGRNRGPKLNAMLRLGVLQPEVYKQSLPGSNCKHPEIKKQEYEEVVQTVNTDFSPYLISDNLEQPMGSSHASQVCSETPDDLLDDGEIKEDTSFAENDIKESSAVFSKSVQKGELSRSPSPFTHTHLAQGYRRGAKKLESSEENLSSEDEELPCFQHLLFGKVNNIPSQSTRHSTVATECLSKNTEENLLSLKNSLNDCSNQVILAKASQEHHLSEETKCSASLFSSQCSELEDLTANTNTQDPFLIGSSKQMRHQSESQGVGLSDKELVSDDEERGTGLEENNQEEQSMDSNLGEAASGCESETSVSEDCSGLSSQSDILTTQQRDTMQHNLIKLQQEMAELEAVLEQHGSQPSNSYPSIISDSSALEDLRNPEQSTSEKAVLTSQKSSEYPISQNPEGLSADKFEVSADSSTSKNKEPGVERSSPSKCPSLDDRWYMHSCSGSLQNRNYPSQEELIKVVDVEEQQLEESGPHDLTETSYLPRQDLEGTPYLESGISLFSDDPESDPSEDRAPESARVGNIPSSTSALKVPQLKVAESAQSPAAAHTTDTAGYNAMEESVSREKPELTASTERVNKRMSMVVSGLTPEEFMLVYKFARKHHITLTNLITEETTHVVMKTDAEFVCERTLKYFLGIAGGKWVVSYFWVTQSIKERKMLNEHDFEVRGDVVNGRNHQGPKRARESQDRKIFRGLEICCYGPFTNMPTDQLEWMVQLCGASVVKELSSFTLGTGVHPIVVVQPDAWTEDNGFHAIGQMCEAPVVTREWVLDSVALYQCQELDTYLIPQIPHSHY

Each structure is given as a SMILES string. Where “and” joins values, the source holds several entries; their conditions need not be identical. Equal entries are not always repeated. This is a selection; strong and weak results do not stand in their true shares. Calls of active or inactive are those of the source. Calls come from the whole dose curve; as a rule, active = well fitted inhibition curve with a large enough effect; inconclusive = small, poorly fitted or top-dose-only effect; inactive = no such curve, though single readings can be large or run the other way.

This assay concerns the target Breast cancer type 1 susceptibility protein (Homo sapiens) (UniProt P38398). The assay is described as follows: qHTS Assay for Inhibitors of BRCT-Phosphoprotein Interaction (Green Fluorophore).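 Note: plate controls were peptide without protein for full effect.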 Particulars: BRCA1 BRCT-phosphopeptide binding, green fluorescence polarization. As for the experimental part: NIH Molecular Libraries Screening Centers Network [MLSCN]
NIH Chemical Genomics Center [NCGC]
PI Name: Natarajan, Amarnath; University of Texas
A complex of BRCT (C-terminal portion of BRCA1, MW ~35 kDa, His-tagged) and fluorescently labeled pBACH1 phosphorylated 10 aa peptide fragment of BACH1, a helicase implicated in DNA repair, is incubated with library members. Inhibitors of BRCT-pBACH1 binding are detected by a decrease in the fluorescence polarization (FP) of the fluorophore. In order to minimize the effect of fluorescence artifacts and to increase the overall robustness of the screen, the compound library members were incubated in separate reactions with fluorescein labeled probe-protein complexes. Protein and labeled probes were supplied by Dr. Amarnath Natarajan, Department of Pharmacology and Toxicology, University of Texas Medical Branch Galveston, TX.
Assay Buffer: 16mM Na2HPO4, 4 mM NaH2PO4, 150 mM NaCl, 1 mM EDTA, 1 mM DTT, 0.02% NaN3, and 0.01% Tween 20 at pH 7.3.
100 nM labeled decapeptide/250 nM protein in columns 1, 2, 5 - 48. Titration of unlabeled decapeptide control (from 10 mM, then 1:2 dilution in duplicate) pin-transferred to column 2, rows 1 to 16. Column 1 is neutral.
Three uL of reagents were dispensed to 1536-well Greiner black solid-bottom plates. Compounds and controls (23 nL) were transferred
via Kalypsys PinTool. The plates were incubated for 12 min at room temperature, and then read on ViewLux (Perkin-Elmer) High throughput CCD imager using FITC for the fluorescein-labeled decapeptide probe polarization filter sets. During dispense, reagent bottles were kept submerged into 4 deg C water bath and all liquid lines were covered with aluminum foil to minimize probe and protein degradation. All screening operations were performed on a Kalypsys robotic system (Kalypsys, Inc., San Diego, CA) containing one RX-130 and two RX-90 anthropomorphic robotic arms. The timing and order of assay plates passing through the screening system were adjusted such that each compound library plate was assayed against the fluorescein- and rhodamine-labeled assay systems at immediately adjacent time points.
A general note: Quantitative high-throughput screening tests each substance at several concentrations.

Setting [1] is: at 76.9 µM (top of the series) unless noted.

Take `CCc1nc2c(n1)c1c(non1O)c1c2no[n+]1[O-]`: under setting [1], the activity change, negative = inhibition is inactive: 0.245%.

For the molecule `O=C(CO)Nc1ccc([As](=O)(O)O)cc1`, the activity change, negative = inhibition under setting [1] was inactive: -0.537% [at 15.4 µM].

For `CN(C(=O)Cc1ccccc1)[C@@H]1CC[C@@]2(CCCO2)C[C@H]1N1CCCC1`, the activity change, negative = inhibition under setting [1] is inactive: -4.94%.

As to `CN(C(=O)Cc1ccc(Cl)c(Cl)c1)[C@H]1CCCC[C@@H]1N1CCCC1`, the activity change, negative = inhibition under setting [1] was inactive: -2.97% and inactive: -1.12% and inactive: -1.88%.

As to `C(Cc1nn[nH]n1)c1nn[nH]n1`, the activity change, negative = inhibition under setting [1] was inactive: 1.07% [at 15.4 µM].

With `[N-]=[N+]=NCC(O)CN=[N+]=[N-]` (configuration not stated), under setting [1], the activity change, negative = inhibition was inactive: 3.35% [at 15.4 µM].

Regarding `O=[N+]([O-])c1ccc(C[As](=O)(O)O)cc1`, under setting [1], the activity change, negative = inhibition is inactive: -1.42% [at 15.4 µM].

`NCC[C@@H](N)CSP(=O)(O)O`: the activity change, negative = inhibition under setting [1] was inactive: -2.04% [at 15.4 µM].

On to `Cc1c2non([O-])c-2c(C)[n+](=O)[n+]1[O-]`, for which the activity change, negative = inhibition under setting [1] is inactive: 0.651%.

As for `O=P1(Nc2nc3ccc(Cl)cc3s2)COc2ccccc2O1` (configuration not stated), the activity change, negative = inhibition under setting [1] was inactive: -0.843%.

As for `COC(=O)c1cc2c(s1)N=C(c1ccccc1)N(C)P2(=O)N1CCOCC1` (configuration not stated), the activity change, negative = inhibition under setting [1] was inactive: -0.936%.

Take `Cc1cc([N+](=O)[O-])cc([N+](=O)[O-])c1O`: the activity change, negative = inhibition under setting [1] is inactive: 0.171%.

Take `[N-]=[N+]=Nc1ccc([As](=O)(O)O)cc1`: under setting [1], the activity change, negative = inhibition was inactive: -1.32% [at 15.4 µM].

For the molecule `O=C(OC1CN2CCC1CC2)c1cccc(Cl)c1` (configuration not stated), the activity change, negative = inhibition under setting [1] is inactive: -0.655%.

On to `c1nnnn1CCn1cnnn1`, for which the activity change, negative = inhibition under setting [1] was inactive: -1.26%.

Consider `O=P(Nc1nccs1)(c1ccccc1)c1ccccc1`, for which the activity change, negative = inhibition under setting [1] is inactive: -2.58%.

Regarding `C[C@@H](O)COc1ccc([As](=O)(O)O)cc1N`, under setting [1], the activity change, negative = inhibition was inactive: 0.187% [at 15.4 µM].

As for `CN1CCC[C@H](OC(=O)C(c2ccccc2)c2ccccc2)C1`, under setting [1], the activity change, negative = inhibition was inactive: -1.29% [at 15.4 µM].

On to `Clc1n[nH]nc1-c1nn[nH][15n]1`, for which the activity change, negative = inhibition under setting [1] was inactive: -0.381%.

With `O=P1(Nc2ccccn2)COc2ccccc2OC1`, the activity change, negative = inhibition under setting [1] was inactive: -0.379%.

On to `CN(CCCl)Cc1cc(Cl)c(NC2=NCCN2)c(Cl)c1`, for which, under setting [1], the activity change, negative = inhibition is inactive: -2.38%.

Consider `CN(C(=O)Cc1ccc(Cl)c(Cl)c1)[C@@H]1CCCC[C@H]1N1CCCC1`, for which the activity change, negative = inhibition under setting [1] was inactive: -0.886% [middle of 4 runs].

With `Cc1nn(-c2ccccc2)c2c1P(=O)(N1CCOCC1)N(C)C(c1ccccc1)=N2` (configuration not stated), the activity change, negative = inhibition under setting [1] is inactive: -0.0997%.

With `O=P1(Nc2ccc(Br)cn2)COc2ccccc2OC1`, the activity change, negative = inhibition under setting [1] was inactive: -2.1%.

With `O=P1(Nc2ncccn2)COc2ccccc2OC1`, the activity change, negative = inhibition under setting [1] is inactive: -1.75%.

As to `O=[As](O)(O)c1ccc([As](=O)(O)O)cc1`, under setting [1], the activity change, negative = inhibition is inactive: 0.745% [at 15.4 µM].

Turning to `O=P(Nc1nccs1)(c1ccccc1)c1nc2ccccc2s1` (configuration not stated), the activity change, negative = inhibition under setting [1] was inactive: 0.03%.

As for `CCOP1(=S)c2c(C)nn(CCC#N)c2N=C(c2ccccc2F)N1C` (configuration not stated), under setting [1], the activity change, negative = inhibition was inactive: -1.68%.

As for `CCOP1(=S)c2c(C)nn(CCC#N)c2N=C(c2ccc(F)cc2)N1C` (configuration not stated), the activity change, negative = inhibition under setting [1] is inactive: 1.47%.

On to `NC(=O)Nc1ccc([As](=O)(O)O)cc1`, for which the activity change, negative = inhibition reads like this: (at 34.4 µM (top of the series)) inactive: -0.972%; (at 76.9 µM (top of the series)) inactive: -0.114%.

For the molecule `CN(C(=O)Cc1ccc(Cl)c(Cl)c1)[C@@H]1CC[C@@]2(CCCO2)C[C@H]1N1CCCC1`, under setting [1], the activity change, negative = inhibition is inactive: -2.58%.

As for `NS(=O)(=O)Cc1ccc([As](=O)(O)O)cc1`, the activity change, negative = inhibition under setting [1] was inactive: -1.43% [at 15.4 µM].

As to `O=C(CC(=O)c1ccccc1)O[C@H]1CN2CCC1CC2`, under setting [1], the activity change, negative = inhibition is inactive: 0.446% [at 15.4 µM].

As for `NC(=O)Nc1cc([As](=O)(O)O)cc(I)c1O`, the activity change, negative = inhibition under setting [1] is inactive: -0.104% [at 15.4 µM].

`O=C(OC1CN2CCC1CC2)C12CC3CC(CC(C3)C1)C2` (configuration not stated): the activity change, negative = inhibition under setting [1] is inactive: -1.43%.

For the molecule `O=[As]c1ccc(S(=O)(=O)NCCO)cc1` (configuration not stated), the activity change, negative = inhibition under setting [1] is inactive: -2.48% [at 15.4 µM].

As for `[N-]=[N+]=NCC(N)=O`, under setting [1], the activity change, negative = inhibition was inactive: 1.42% [at 15.4 µM].

On to `CN(N=O)C(=N)N[N+](=O)[O-]`, for which, under setting [1], the activity change, negative = inhibition was inactive: -1.09%.

`O=C(COc1ccccc1)OC1CN2CCC1CC2` (configuration not stated): under setting [1], the activity change, negative = inhibition was inactive: -0.908%.

`O=C(O)[C@@H](O)c1ccc([As](=O)(O)O)cc1`: the activity change, negative = inhibition under setting [1] is inactive: -1.37% [at 15.4 µM].

On to `COP1(=S)c2c(C)nn(CCC#N)c2N=C(c2ccc(F)cc2)N1C` (configuration not stated), for which the activity change, negative = inhibition under setting [1] is inactive: -1.69%.
